From article PMC6214487 (Journal of drug design and research, 2018)

Tested on: HIV-1JR-FL envelope pseudotyped virus
Assay: Single-round infection assay, early-stage events
Settings: compound present at infection of target cells, luciferase

`CCn1ncc(CC(=O)NC(Cc2ccccc2)C(=O)N(C)c2ccccc2)c1C(F)F` (stereo not shown) [CX06, 2-(2-(5-(difluoromethyl)-1-ethyl-1H-pyrazol-4-yl)acetamido)-N-methyl-N,3-diphenylpropanamide] was tested, and the “Effect on early-stage events, infectivity of target cells” value was “displays effects in both the late, assembly and early, infective stages”.
